Measurements from patent US20200121814A1 (GENERAL HOSPITAL, published 2020).

The chains behind the UniProt entries cited, without tags or fusion partners. Residues count along the entry.
UniProt P21860, 20-643: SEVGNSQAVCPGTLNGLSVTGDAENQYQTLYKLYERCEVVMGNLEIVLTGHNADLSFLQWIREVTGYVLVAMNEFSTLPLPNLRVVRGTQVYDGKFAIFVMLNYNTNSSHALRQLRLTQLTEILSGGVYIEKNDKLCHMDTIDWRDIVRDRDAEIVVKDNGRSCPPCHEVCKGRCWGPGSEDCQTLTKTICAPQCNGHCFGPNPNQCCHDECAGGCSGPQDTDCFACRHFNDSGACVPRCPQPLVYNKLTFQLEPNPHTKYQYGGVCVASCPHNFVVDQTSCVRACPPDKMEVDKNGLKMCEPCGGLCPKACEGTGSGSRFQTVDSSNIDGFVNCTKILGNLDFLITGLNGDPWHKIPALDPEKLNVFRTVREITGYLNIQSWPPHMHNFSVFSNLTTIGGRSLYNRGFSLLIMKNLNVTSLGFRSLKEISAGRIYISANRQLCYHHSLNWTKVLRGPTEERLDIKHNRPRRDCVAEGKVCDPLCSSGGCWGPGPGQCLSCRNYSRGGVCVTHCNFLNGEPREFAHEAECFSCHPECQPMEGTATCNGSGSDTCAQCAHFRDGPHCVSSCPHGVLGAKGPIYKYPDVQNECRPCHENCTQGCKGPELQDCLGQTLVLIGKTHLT

Target: T1, HER3 extracellular domain (ECD) (R&D Systems) (human, UniProt P21860 20-643)
T1 construct: extracellular domain; Adsorbed to Maxisorp plates in the ELISAs; also called HER3 ECD; ERBB3
Experiment: peptide ELISA on immobilized HER3 ECD, increasing peptide concentrations, sigmoidal dose response fit; given as 'affinity'
Method: For comparison of phage clones against BSA and peptide specificity against other receptor tyrosine kinases, a one-way ANOVA with a Dunnett test to correct for multiple comparisons was performed. A sigmoidal dose response curve was fit to the peptide affinity data using Graphpad Prism 6.0. For peptide cell binding a two-way ANOVA with a Sidak's multiple comparisons test was performed. A linear regression was fit to HER3 TBR versus western blot data, with correlation significance calculated by a Pearson correlation.
After determination of a consensus peptide binding sequence, the peptide sequence was covalently linked to a biotin-conjugated N-terminal tri-glycine linker using standard Fmoc chemistry. The purity and molecular weight were determined by high performance liquid chromatography and mass spectrometry. In order to confirm HER3 affinity, the peptide was analyzed for binding to HER3 ECD immobilized to Nunc Maxisorp 96 well microtiter plates. […] Wells were washed with 0.1% TBST, and bound peptide detected by addition of HRP-conjugated streptavidin (Abeam, Cambridge, UK), washing and ABTS substrate incubation for 10 minutes. Absorbance at 405 nm was read by spectrophotometer. […] Plates were washed and bound peptide once again detected by addition of streptavidin-HRP and ABTS and absorbance read at 405 nm.

Kd: 270 nM
B1: HER3P1 (biotin-conjugated, N-terminal tri-glycine linker) (peptide)
peptide: GGGCLPTKFRSC
modifications: N-terminal biotin on the tri-glycine linker; cysteine-constrained sequence (disulfide bond between the cysteine groups as drawn in the formulas)
notes: The formulas of the description print a beta A before G-G-G; also called HER3 peptide; the peptide
